Results from patent US20140161767A1, “FOLLICLE-STIMULATING HORMONE (FSH)/LYTIC DOMAIN FUSION CONSTRUCTS AND METHODS OF MAKING AND USING SAME” (BOARD OF SUPERVISORS OF LOUISIANA STATE UNIVERSITY AND …, priority 2012, published 2014).

Columns and labels:
MDA-MB-435S xenograft = test: MDA-MB-435S xenograft, multiple dose regimen; assay type: in vivo, mice; conditions: entire study period
Experimental: In order to determine the minimal effective dose necessary to reduce MDA-MB-435S xenograft weights in a multiple dose regimen, Nu/Nu female mice, outbred strain, age 8 weeks (Charles River), were injected (s.c.) into the interscapular region with a MDA-MB-435S (passage #253)/Matrigel suspension (2×10^6 cells/mouse) as previously described above. Phor18-LHRH (338613) (ID: 338613 lot# P080401) (0.002, and 0.2 mg/kg) were reconstituted in USP saline prior to dosing. The doses were given as a single bolus intravenous injection via lateral tail vein on days 15, 16, 17, 20, 21, 22, 23, 27, 28, 29, 30, 33, 34, 35, 36, 37, 38, 40, 41, 42 after tumor cell inoculation. Saline injections served as control groups.
Each treatment group consisted of 16 mice. During the entire study tumor volumes were recorded twice weekly. Final necropsy was conducted on day 45 after tumor cell injection. […] due to occlusion of the tail vein in most mice. At study endpoint body weight, tumor weights were determined and fixed in phosphate buffered 10% formalin.

OVCAR-3 xenograft = test: OVCAR-3 ovarian cancer xenograft; assay type: in vivo; conditions: 2 mg/kg dose; procedural, not related to treatment
Experimental: To determine the efficacy of Phor18-LHRH (338613) on ovarian cancer xenografts that resemble the human disease, single and multiple dose studies were conducted. The xenograft model of the OVCAR-3 human ovarian cancer cell line that present functional LHRH receptors was used in this study. OVCAR-3 represents a slow growing xenograft model and secretes the tumor marker (cancer antigen 125, or CA125). It's secretion can be used as treatment response and is a measure of drug activity. […]
A group of 9 tumor bearing mice was sacrificed on day 33 and served as baseline group. […] Tumor volumes and bodyweights were recorded twice weekly during the study, as well as overall veterinarian examination of mice was conducted.
Primary tumors, liver, kidney, pancreas, heart, lung, and spleen were collected, fixed in formalin and prepared for histological evaluation. Tumor weights were measured at necropsy, part of the tumors were frozen at −80° C. for LH/CG and LHRH receptor assay determination.
As a biomarker for drug activity, CA125 was determined in serum, collected from each individual mouse at necropsy using a Enzyme Linked Immunoassay for quantitative determination of ovarian cancer antigen CA125 (Assay kit Genway, Biotech, Inc. San Diego, Calif., Catalog #40-052-115009, # BC-1013 according to the manufacturer).
LHRH receptor levels were assessed from formalin fixed tumors. […]

[1] = Maximum tolerated dose (MTD) and safety margin; assay type: in vivo; conditions: injected dose resulting in 66.6% survival (acute and 8-14 days post injection)
Experimental: The fusion conjugates have a high safety margin considering parameters such as hemolytic activity, maximum tolerated dose (MTD) (up to 16-25 mg/kg) in comparison with the anti-tumor effective dose (0.02 or 0.01 mg/kg). The safety margin for Phor21-βCG-ala is 16 whereas a value of 800 can be reached for Phor18-βCG-ala and Phor18-LHRH. In comparison the safety margin for Phor18-Lupron is only 8.
4) Injected dose resulting in 66.6% survival (acute and 8-14 days post injection).

human red blood cells = test: Acute hemolytic activity on human red blood cells; assay type: cell-based; conditions: expressed as HA
Experimental: Acute hemolytic activities for 21 fusion constructs including Phor18-Lupron and D-ala-Phor18-LHRH, were studied.
Hemolytic activity was determined in 96 well plates using a serial dilution of peptides exposed to 0.5% human RBC. Controls were saline (no RBC death) or 0.1% Triton X 100 (100% RBC lysis). The peptide concentrations ranged from 0 to 100 μM. Incubations were conducted for 2 h.

With “KFAKFAKKFAKFAKKFAKQHWSYGLRPG [Phor18-LHRH]” the Bodyweights (MDA-MB-435S xenograft) was “not affected”, the Deaths at injection (OVCAR-3 xenograft) was “One mouse died during the first injection” and the MTD [1] was 16 mg/kg. For the same sequence, the “Hemolytic Activity” value (human red blood cells) was 297 µM.
